ChEMBL document CHEMBL1127843, “2-(3,4-Dichlorophenyl)-N-methyl-N-[(1S)-1-(3-isothiocyanatophenyl)-2-(1-pyrrolidinyl)ethyl]acetamide: an opioid receptor affinity label that produces selective and long-lasting kappa antagonism in mice” (J Med Chem, 1994)

Key:
[1] = test system: Mus musculus; experiment: Compound was evaluated for […] antagonist activity towards Mouse vas deferens(MVD); format: functional
[2] = test system: Cavia porcellus; experiment: Compound was evaluated for In vivo antagonist activity towards guinea pig ileum(GPI); format: functional, organism-based

Work on `CN(C(=O)Cc1ccc(Cl)c(Cl)c1)[C@H](CN1CCCC1)c1ccccc1` yielded an IC50 [1] of 1600 pM and an IC50 [2] of 199 pM.
